# Ab-14 heavy chain CDR variants: yeast mating affinities

Target: peptide PDVDLGDISGINAS, taken from heptad repeat 2 (HR2) of SARS-CoV-2 spike.

The variants keep the light chain, the linker and the frameworks of Ab-14 (scFv order VH, three GGGGS repeats, VL).
VH: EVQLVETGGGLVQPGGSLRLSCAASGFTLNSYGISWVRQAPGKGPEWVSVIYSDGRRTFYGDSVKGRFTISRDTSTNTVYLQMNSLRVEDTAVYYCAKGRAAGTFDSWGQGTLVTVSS
VL: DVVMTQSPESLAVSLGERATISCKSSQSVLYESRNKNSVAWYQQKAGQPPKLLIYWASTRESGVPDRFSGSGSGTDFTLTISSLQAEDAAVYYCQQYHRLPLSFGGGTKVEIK

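The parent was found by panning a naive human phage display library on the peptide. AAYL49 was designed without a model: most single CDR substitutions and a random sample of double and triple ones. AlphaSeq pools MATa yeast showing the antibodies with MATalpha yeast showing the peptide. Binding brings cells together so that they mate, and sequencing counts the barcode pairs among the diploids. Each replicate has its own calibration line, from reference interactions of the BCL2 family. The assay was run in three technical replicates.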

Each variant is given by its three heavy chain CDRs, as the data file delimits them; those of the parent are GFTLNSYGIS, VIYSDGRRTFYGDSVK, GRAAGTFDS. The Kd shown is the geometric mean over detected replicates; a lower Kd is a better binder. A pair that was not seen in any replicate is written "not detected"; this usually means weak binding, but a binder can also be missed. The list is sorted by this average, lowest first, undetected variants last.

| CDR-H1 | CDR-H2 | CDR-H3 | Kd | seen in | empty controls |
|---|---|---|---|---|---|
| GFTLESYGIS | VIYSDGRRTFYGDSVK | QRAAGTFMS | 3.0 nM | 3 of 3 | 1 of 9 |
| GFTLNDYGIS | VCYSDGRRTFYGDSVK | GRAAGTFDS | 45 nM | 3 of 3 | 2 of 9 |
| GFDLNSYGIS | VIYSDGRRTTYGDSVK | GRAYGTFDS | 82 nM | 3 of 3 | 0 of 9 |
| GFTLNSYGIS | VIYSDGTRTFYGGSVK | GRAAGTFDS | 140 nM | 3 of 3 | 0 of 9 |
| GFTLNSYGIS | VIYSDGTRTFYGWSVA | GRAAGTFDS | 150 nM | 3 of 3 | 1 of 9 |
| GFTLTDYGIG | VIYSDGRRTFYGDSVK | GRAAGTFDS | 150 nM | 1 of 3 | 0 of 9 |
| GFTLNSYGIS | VIYSDGRRSFYHDRVK | GRAAGTFDS | 200 nM | 3 of 3 | 5 of 9 |
| PFDLNSYGIS | VIYSDGRRTFIGDSVK | GRAAGTFDS | 210 nM | 2 of 3 | 0 of 9 |
| GFTLNSYGIH | VIYSDGRRTFYGESIK | GRAAGTFDS | 270 nM | 3 of 3 | 0 of 9 |
| EFTLNSYGIS | VIYSDGRRLFYGDSVK | GRAAGFFDS | 910 nM | 2 of 3 | 2 of 9 |
| GFTLNSYGIS | VIYSDGRWTFYGDSVK | GRGAGTEDS | 1.6 µM | 1 of 3 | 1 of 9 |
| LFTLNSYEIS | VWYSDGRRTFYGDSVK | GRAAGTFDS | 1.7 µM | 1 of 3 | 1 of 9 |
| GFTLNPYGIS | VIYSDGRRTDYGDQVK | GRAAGTFDS | 1.8 µM | 1 of 3 | 0 of 9 |
| GATLNSYGIS | VIYSDGRRTFYGDSVC | GRAAGTFDS | 2.1 µM | 3 of 3 | 1 of 9 |
| WFTLNSYGIS | VIYSDGRRTFYGDQVK | GRAAGTFDG | 2.4 µM | 3 of 3 | 2 of 9 |
| GFTLNSYGIS | VIYSDGRRTFYGDSVR | GRAHSTFDS | 2.7 µM | 1 of 3 | 2 of 9 |
| GFPLNSYGIS | VIYSDGRRIFEGDSVK | GRAAGTFDS | 3.2 µM | 3 of 3 | 1 of 9 |
| GFTLNSYGIS | VIYLDGRRTIYGDSVK | RRAAGTFDS | 3.5 µM | 1 of 3 | 4 of 9 |
| GFTLNSYGIS | VIYSDGRRTFYGDSLK | GRAEGTFDY | 3.6 µM | 1 of 3 | 1 of 9 |
| GFTSNSYGIS | VIYSDGRRTFYGDSVK | TRAAGTFDC | 3.8 µM | 2 of 3 | 0 of 9 |
| GFTLNSYGIS | VIYSDGRRTFNGDSVK | GRAAGTQDC | 5.9 µM | 2 of 3 | 2 of 9 |
| GFTLNSYGIS | VIYSDGRRTFYGDSVC | GRCAGSFDS | 10 µM | 2 of 3 | 0 of 9 |
| GFTLNSWGIS | VIYHDGRRTFYGDSVK | GRAAYTFDS | 16 µM | 1 of 3 | 1 of 9 |
| GFTLNDYGIE | VIYSDGRRTFYGDSVK | GRAAGTFDS | 18 µM | 1 of 3 | 1 of 9 |
| GFSLNSYGIS | VIYSDRRRTFYADSVK | GRAAGTFDS | 19 µM | 1 of 3 | 2 of 9 |
| GPTLNAYGIS | VIYSDGRRTFYGDSVK | GRAAGYFDS | 33 µM | 2 of 3 | 5 of 9 |
| GFTLMSGGIS | VIYSDGRRTFYGDSVK | SRAAGTFDS | 36 µM | 1 of 3 | 3 of 9 |
| GFTLNSYGIS | AIYSDGRRTFYGDSVK | GRAAYTFDS | 46 µM | 3 of 3 | 7 of 9 |
| GFTLNSIGIA | VIYSDGRRTFYGDSVK | GWAAGTFDS | 52 µM | 2 of 3 | 4 of 9 |
| GFTLNSYGGS | VIFSVGRRTFYGDSVK | GRAAGTFDS | 130 µM | 2 of 3 | 6 of 9 |
| GFTLISNGIS | VIYSDGRNTFYGDSVK | GRAAGTFDS | 250 µM | 2 of 3 | 5 of 9 |
| GFTLNSYGIS | VIYGHGRRTFYGDSVK | CRAAGTFDS | 750 µM | 1 of 3 | 2 of 9 |
| GFTLNSYKIS | VIYSDGRRTFYGHCVK | GRAAGTFDS | not detected | 0 of 3 | 1 of 9 |
| TFTLNSYGIS | VIYSDTRRTFYGDSVK | GRAAGTFDQ | not detected | 0 of 3 | 0 of 9 |
| GFTLNSYGIS | VIYSDGDLTFYGDSVK | GRAAGTFDF | not detected | 0 of 3 | 1 of 9 |
| GFTLNSVGIS | VIYSDGRGTFYGDSVK | GRAAGEFDS | not detected | 0 of 3 | 2 of 9 |
| CFTLFSYGIS | VIYSFGRRTFYGDSVK | GRAAGTFDS | not detected | 0 of 3 | 0 of 9 |
| GFTLNSYGID | VIYSDGRRTFYGDSVK | GRAAGTFWH | not detected | 0 of 3 | 0 of 9 |
| GFTLNWYGIS | VIYSDKRRTFYGDSVK | GRAAGTFDS | not detected | 0 of 3 | 5 of 9 |
| GFTLNSYQIS | VIYSDGRRTFYGDSVH | GRAAGTFDS | not detected | 0 of 3 | 0 of 9 |
| GFTLNSYGIS | VDYSDGRRTFYGSSVK | GRMAGTFDS | not detected | 0 of 3 | 0 of 9 |
| GFNLNSYEIS | FIYSDGRRTFYGDSVK | GRAAGTFDS | not detected | 0 of 3 | 0 of 9 |
| GFTLNSYGIS | VIWDDGRRTFYGDSVK | GRAAGTFDS | not detected | 0 of 3 | 1 of 9 |
| GFTLCSYGES | VIYSDYRRTFYGDSVK | GRAAGTFDS | not detected | 0 of 3 | 2 of 9 |
| GFTLNSYGIS | VCGSMGRRTFYGDSVK | GRAAGTFDS | not detected | 0 of 3 | 0 of 9 |
| VFTENSYGIS | VIYSDGRRTFYGDSVK | GRAAGTFNS | not detected | 0 of 3 | 0 of 9 |
| GHTLNSYGIS | VIYLFGRRTFYGDSVK | GRAAGTFDS | not detected | 0 of 3 | 0 of 9 |
| GFELTSYGIS | VIYSDPRRTFYGDSVK | GRAAGTFDS | not detected | 0 of 3 | 3 of 9 |
| WFTLNSYGIS | VIYSSGRRNFYGDSVK | GRAAGTFDS | not detected | 0 of 3 | 1 of 9 |
| GFTLNSYGIS | VISSDGCRTVYGDSVK | GRAAGTFDS | not detected | 0 of 3 | 1 of 9 |
| GFTLLSYGIS | VIHSDGRRTFYGDSVK | GRAAGTFIS | not detected | 0 of 3 | 1 of 9 |
| GFTGNSYGIS | RIYSDGRRTFYGGSVK | GRAAGTFDS | not detected | 0 of 3 | 1 of 9 |
| GFTLNSYGIS | VIYSDGRRKFYGDSVK | GRAAMTFDC | not detected | 0 of 3 | 1 of 9 |
| CFTLNSYGIF | VIYSDGRRTFYGDIVK | GRAAGTFDS | not detected | 0 of 3 | 0 of 9 |
| GFFLNSYGRS | VIYSDGGRTFYGDSVK | GRAAGTFDS | not detected | 0 of 3 | 1 of 9 |
| GFTLNSYGIS | MIYWDGRRTFYGDSVW | GRAAGTFDS | not detected | 0 of 3 | 1 of 9 |
| GFTLNSYGIS | VIYSDGRRTFEADSVK | GRAAVTFDS | not detected | 0 of 3 | 0 of 9 |
| GFTLNSYGIS | VIYSDGKRTFYGDSGK | GRAAGTFES | not detected | 0 of 3 | 0 of 9 |
| GFFLNSYGIS | VIYSDGRETFYGDSVK | GRAAGTFDN | not detected | 0 of 3 | 0 of 9 |
| GFTLNSYGIS | VAYSDGRRPFYGDMVK | GRAAGTFDS | not detected | 0 of 3 | 0 of 9 |
| VFTLNSYGIS | VIYSDLRRTFYGDSVK | WRAAGTFDS | not detected | 0 of 3 | 0 of 9 |
| GFTLNSYGIS | VIQSDGRRTFKGDSVK | GRAAGTFDS | not detected | 0 of 3 | 0 of 9 |
| GTTLNSYGIS | VIYSDGRRTFYGDSVK | GRAAGEFDS | not detected | 0 of 3 | 7 of 9 |
| GFTLNSYGIS | VIYSDWRRTFYGFSVK | GRAAGTFIS | not detected | 0 of 3 | 1 of 9 |
| QFTLNSYGIS | VIYSDGRRTFYGDSHK | GRAHGTFDS | not detected | 0 of 3 | 3 of 9 |
| GFTLNSYGIS | VIYSDGRRTYYGDKVK | GRAAGTFHS | not detected | 0 of 3 | 0 of 9 |
| GFTLNSYGIS | VIYSDGRRTFYGNSVK | GRAAGTQDN | not detected | 0 of 3 | 2 of 9 |

From the list, the first 10 with no signal in any replicate:

{"CDR-H1": "GFTLNSYKIS", "CDR-H2": "VIYSDGRRTFYGHCVK", "CDR-H3": "GRAAGTFDS", "Kd": "not detected", "seen in": "0 of 3", "empty controls": "1 of 9"}
{"CDR-H1": "TFTLNSYGIS", "CDR-H2": "VIYSDTRRTFYGDSVK", "CDR-H3": "GRAAGTFDQ", "Kd": "not detected", "seen in": "0 of 3", "empty controls": "0 of 9"}
{"CDR-H1": "GFTLNSYGIS", "CDR-H2": "VIYSDGDLTFYGDSVK", "CDR-H3": "GRAAGTFDF", "Kd": "not detected", "seen in": "0 of 3", "empty controls": "1 of 9"}
{"CDR-H1": "GFTLNSVGIS", "CDR-H2": "VIYSDGRGTFYGDSVK", "CDR-H3": "GRAAGEFDS", "Kd": "not detected", "seen in": "0 of 3", "empty controls": "2 of 9"}
{"CDR-H1": "CFTLFSYGIS", "CDR-H2": "VIYSFGRRTFYGDSVK", "CDR-H3": "GRAAGTFDS", "Kd": "not detected", "seen in": "0 of 3", "empty controls": "0 of 9"}
{"CDR-H1": "GFTLNSYGID", "CDR-H2": "VIYSDGRRTFYGDSVK", "CDR-H3": "GRAAGTFWH", "Kd": "not detected", "seen in": "0 of 3", "empty controls": "0 of 9"}
{"CDR-H1": "GFTLNWYGIS", "CDR-H2": "VIYSDKRRTFYGDSVK", "CDR-H3": "GRAAGTFDS", "Kd": "not detected", "seen in": "0 of 3", "empty controls": "5 of 9"}
{"CDR-H1": "GFTLNSYQIS", "CDR-H2": "VIYSDGRRTFYGDSVH", "CDR-H3": "GRAAGTFDS", "Kd": "not detected", "seen in": "0 of 3", "empty controls": "0 of 9"}
{"CDR-H1": "GFTLNSYGIS", "CDR-H2": "VDYSDGRRTFYGSSVK", "CDR-H3": "GRMAGTFDS", "Kd": "not detected", "seen in": "0 of 3", "empty controls": "0 of 9"}
{"CDR-H1": "GFNLNSYEIS", "CDR-H2": "FIYSDGRRTFYGDSVK", "CDR-H3": "GRAAGTFDS", "Kd": "not detected", "seen in": "0 of 3", "empty controls": "0 of 9"}

For reference, the parent read 4.4 nM as the reference entry and 13 µM (one replicate of three) as a member of this library. Nonspecific signal, from three strains lacking the peptide, appeared in 15% of pairings of library AAYL49, centred on 11 µM (5% of these signals below 680 nM); values are not corrected for it. For each scFv, signals with the empty controls are counted beside the result.

Values reported by Engelhart et al. 2022, doi:10.1038/s41597-022-01779-4 (FLAb copy).